The test system of the test is HL-7702. The test is described as follows: MTT test on human normal hepatocytes HL-7702. Type of test: cell-based. The following applies: human normal hepatocytes HL-7702, MTT, 48 h. (Tetrazolium dyes change colour on reduction, which living cells bring about.)

Consider “4β-S-(3-phenyl-1,3,4-thiadiazol-2(3H)thione potassium salt-5)-4′-demethylepipodophyllotoxin [Compound 26]”, for which the IC50 (as a rule, the concentration that inhibits the measured activity by half) is 43.4 ± 4 µM.
